{"sequences": {"note": "Amino acid sequences for entries named in this document (tags omitted).", "UniProt P06276, whole entry": "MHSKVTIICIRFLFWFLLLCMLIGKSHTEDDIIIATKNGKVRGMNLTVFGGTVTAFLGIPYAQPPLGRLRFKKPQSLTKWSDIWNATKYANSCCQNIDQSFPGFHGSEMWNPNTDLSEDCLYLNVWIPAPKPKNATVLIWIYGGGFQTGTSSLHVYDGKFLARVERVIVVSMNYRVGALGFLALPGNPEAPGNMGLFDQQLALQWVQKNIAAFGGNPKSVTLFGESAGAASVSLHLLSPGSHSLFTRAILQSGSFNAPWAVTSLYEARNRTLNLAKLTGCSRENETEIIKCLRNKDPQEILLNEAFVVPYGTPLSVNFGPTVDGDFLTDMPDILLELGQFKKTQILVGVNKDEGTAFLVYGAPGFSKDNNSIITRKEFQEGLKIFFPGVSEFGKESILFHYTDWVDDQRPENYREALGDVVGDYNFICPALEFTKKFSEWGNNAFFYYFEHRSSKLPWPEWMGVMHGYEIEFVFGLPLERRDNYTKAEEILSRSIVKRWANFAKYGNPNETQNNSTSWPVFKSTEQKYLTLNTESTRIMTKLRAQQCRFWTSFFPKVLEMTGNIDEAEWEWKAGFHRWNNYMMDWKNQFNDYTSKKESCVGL"}, "source": "ChEMBL document CHEMBL4765338", "about": "“Simple analogues of natural product chelerythrine: Discovery of a novel anticholinesterase 2-phenylisoquinolin-2-ium scaffold with excellent potency against acetylcholinesterase” (Eur J Med Chem, 2020)", "target": "Cholinesterase (Homo sapiens, UniProt P06276)"}
{"smiles": "CCN(C)C(=O)Oc1cccc([C@H](C)N(C)C)c1", "note": "[RIVASTIGMINE]", "values": [{"measurement": "IC50", "result": 2860, "unit": "nM"}]}
